Measured values reported in ChEMBL document CHEMBL4765404, “Identification of benzofused five-membered sultams, potent dual NOD1/NOD2 antagonists in vitro and in vivo” (Eur J Med Chem, 2020).

By UniProt entry, the sequences of proteins in these tests, tags left out.
UniProt Q9HC29, whole entry: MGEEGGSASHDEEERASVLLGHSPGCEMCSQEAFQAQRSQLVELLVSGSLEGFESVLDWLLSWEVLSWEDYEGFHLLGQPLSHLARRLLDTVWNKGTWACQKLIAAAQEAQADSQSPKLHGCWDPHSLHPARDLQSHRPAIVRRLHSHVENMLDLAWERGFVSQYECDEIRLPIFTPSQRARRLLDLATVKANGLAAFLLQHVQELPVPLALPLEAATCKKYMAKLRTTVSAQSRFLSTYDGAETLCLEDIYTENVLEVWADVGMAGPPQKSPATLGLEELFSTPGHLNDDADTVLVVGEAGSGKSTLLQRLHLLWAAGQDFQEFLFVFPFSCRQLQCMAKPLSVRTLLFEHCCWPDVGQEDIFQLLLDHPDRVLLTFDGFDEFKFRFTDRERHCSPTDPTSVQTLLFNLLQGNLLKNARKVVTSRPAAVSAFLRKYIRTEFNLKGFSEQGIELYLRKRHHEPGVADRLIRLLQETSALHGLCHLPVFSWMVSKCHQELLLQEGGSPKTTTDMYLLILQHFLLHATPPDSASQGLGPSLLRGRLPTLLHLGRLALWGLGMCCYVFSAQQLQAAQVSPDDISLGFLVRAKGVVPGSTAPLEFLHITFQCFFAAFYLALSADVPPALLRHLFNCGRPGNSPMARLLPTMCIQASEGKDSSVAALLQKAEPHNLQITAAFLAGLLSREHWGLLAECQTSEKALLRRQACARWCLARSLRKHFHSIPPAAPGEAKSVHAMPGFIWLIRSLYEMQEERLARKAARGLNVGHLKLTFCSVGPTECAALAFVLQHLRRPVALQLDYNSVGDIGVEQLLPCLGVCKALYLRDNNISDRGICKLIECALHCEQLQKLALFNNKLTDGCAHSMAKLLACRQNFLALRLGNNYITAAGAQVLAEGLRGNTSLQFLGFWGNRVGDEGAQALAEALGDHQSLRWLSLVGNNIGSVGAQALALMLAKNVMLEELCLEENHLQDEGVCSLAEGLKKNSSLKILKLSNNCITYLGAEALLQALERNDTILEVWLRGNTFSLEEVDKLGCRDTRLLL

molecular target: Nucleotide-binding oligomerization domain-containing protein 2 (Homo sapiens, UniProt Q9HC29); assay: Antagonist activity at human NOD2 in HEK-Blue hNOD2 cells assessed as reduction in secreted alkaline phosphatase reporter activity at 10 uM preincubated for 3 hrs followed by stimulated with MDP for 20 hrs by Spectrophotometer method; assay type: cell-based; details: filed as antagonist

SMILES | inhibition
CCCCOC(=O)CC1c2cc(C)cc(C)c2S(=O)(=O)N1C(=O)c1ccc(C(F)(F)F)cc1 (stereo unspecified) | 85.7%
CCCCOC(=O)CC1c2c(F)ccc(C)c2S(=O)(=O)N1C(=O)c1ccc(C(F)(F)F)cc1 (stereo unspecified) | 76.3%
CCCCOC(=O)CC1c2cccc(C)c2S(=O)(=O)N1C(=O)c1ccccc1C(F)(F)F (stereo unspecified) | 90.4%
CCCCOC(=O)CC1c2cccc(C(=O)OCCCC)c2S(=O)(=O)N1C(=O)c1ccc(C(F)(F)F)cc1 (stereo unspecified) | 66.7%
CCCCc1noc(CC2c3cccc(C)c3S(=O)(=O)N2C(=O)c2cccc(C(F)(F)F)c2)n1 (stereo unspecified) | 78.4%
CCCCOC(=O)CC1c2c(OC)ccc(OC)c2S(=O)(=O)N1C(=O)c1ccc(C(F)(F)F)cc1 (stereo unspecified) | 77%
CCCCOC(=O)CC1c2cccc(C)c2S(=O)(=O)N1C(=O)c1ccc(C#N)cc1 (stereo unspecified) | 65.6%
CCCCOC(=O)CC1c2cc(OC)cc(OC)c2S(=O)(=O)N1C(=O)c1ccc(C(F)(F)F)cc1 (stereo unspecified) | 65.8%
CCCCc1nnc(CC2c3cccc(C)c3S(=O)(=O)N2C(=O)c2cccc(C(F)(F)F)c2)o1 (stereo unspecified) | 91.3%

More lines, now with the values ahead:

inhibition | SMILES
58.2% | CCCCOC(=O)CC1c2ccc(Cl)c(C)c2S(=O)(=O)N1C(=O)c1ccc(C(F)(F)F)cc1 (stereo unspecified)
76.4% | COC(=O)CC1c2cccc(C)c2S(=O)(=O)N1C(=O)c1ccc(C(F)(F)F)cc1 (stereo unspecified)
92.4% | CCCCOC(=O)CC1c2cccc(Cl)c2S(=O)(=O)N1C(=O)c1ccc(C(F)(F)F)cc1 (stereo unspecified)
66.6% | CCCCOC(=O)CC1c2cc(F)cc(C)c2S(=O)(=O)N1C(=O)c1ccc(C(F)(F)F)cc1 (stereo unspecified)
89.7% | CCCCOC(=O)CC1c2cccc(C)c2S(=O)(=O)N1C(=O)c1cccc(C(F)(F)F)c1 (stereo unspecified)
84% | CCCCOC(=O)CC1c2cccc(C)c2S(=O)(=O)N1C(=O)c1ccc(C(F)(F)F)cc1 (stereo unspecified)
66.5% | Cc1cccc2c1S(=O)(=O)N(C(=O)c1ccc(C(F)(F)F)cc1)C2CC(=O)OC(C)(C)C (stereo unspecified)
